Permeability data for macrocyclic peptides

Source: CycPeptMPDB (Li et al. 2023), which took these values from Kelly et al. 2021, doi:10.1021/jacs.0c06115.

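Conditions beyond the assay type are not listed; see the original paper. Other peptides of the study may be missing here. Peptides that the database sets to -10, its floor, are left out.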

PAMPA is the parallel artificial membrane permeability assay, which has no cells and reads passive diffusion. Permeability is in 10^-6 cm/s, converted from the database's log10 values; higher is more permeable.

CCC[C@H]1NC(=O)[C@H](Cc2ccc(OC)cc2)NC(=O)[C@@H](CC2CCCCC2)NC(=O)[C@@H](NC(=O)[C@@H](CC(C)C)N(C)C(=O)[C@@H]2CCCN2C(C)=O)[C@@H](C)OC(=O)[C@@H]2CCCN2C(=O)[C@H](CC(C)C)NC(=O)[C@@H](C)N(C)C1=O is reported with PAMPA 1.1 × 10^-6 cm/s.
CC[C@H]1NC(=O)[C@H](CCc2ccccc2)NC(=O)[C@@H](Cc2ccccc2)NC(=O)[C@@H](NC(=O)[C@@H](CC(C)C)N(C)C(=O)[C@@H]2CCCN2C(C)=O)[C@@H](C)OC(=O)[C@@H]2CCCN2C(=O)[C@H](CC(C)C)NC(=O)[C@@H](C)N(C)C1=O is reported with PAMPA 2 × 10^-6 cm/s.
CC[C@H]1NC(=O)[C@@H](NC(=O)[C@@H](CC(C)C)N(C)C(=O)[C@@H]2CCCN2C(C)=O)[C@@H](C)OC(=O)[C@@H]2CCCN2C(=O)[C@H](CC(C)C)NC(=O)[C@@H](C)N(C)C(=O)[C@@H](CC)NC(=O)[C@H](Cc2ccccc2)NC1=O is reported with PAMPA 0.14 × 10^-6 cm/s.
CC(=O)N1CCC[C@H]1C(=O)N(C)[C@H](CC(C)C)C(=O)N[C@@H]1C(=O)N[C@H](CC2CCCCC2)C(=O)N[C@@H](CC(C)C)C(=O)N[C@H](CC(C)C)C(=O)N(C)[C@H](C)C(=O)N[C@@H](CC(C)C)C(=O)N2CCC[C@H]2C(=O)O[C@@H]1C is reported with PAMPA 2.2 × 10^-6 cm/s.
CC(=O)N[C@@H]1C(=O)N2CCC[C@H]2C(=O)N(C)[C@H](CC(C)C)C(=O)N(C)[C@@H](CC(C)C)C(=O)N[C@@H](CC(C)C)C(=O)N[C@H](CC(C)C)C(=O)N[C@H](C)C(=O)N[C@@H](CC(C)C)C(=O)N2CCC[C@@H]2C(=O)O[C@@H]1C is reported with PAMPA 0.39 × 10^-6 cm/s.
CC[C@H]1NC(=O)[C@@H](NC(=O)[C@@H](CC(C)C)N(C)C(=O)[C@@H]2CCCN2C(C)=O)[C@@H](C)OC(=O)[C@@H]2CCCN2C(=O)[C@H](CC(C)C)NC(=O)[C@@H](C)N(C)C(=O)[C@@H](Cc2cccc3ccccc23)NC(=O)[C@H](Cc2ccc(OC)cc2)NC1=O is reported with PAMPA 2.3 × 10^-6 cm/s.
CC(=O)N1CCC[C@H]1C(=O)N(C)[C@H](CC(C)C)C(=O)N[C@@H]1C(=O)N[C@H](Cc2ccc(F)c(F)c2)C(=O)N[C@@H](Cc2ccccc2)C(=O)N[C@H](Cc2ccccc2)C(=O)N(C)[C@H](C)C(=O)N[C@@H](CC(C)C)C(=O)N2CCC[C@H]2C(=O)O[C@@H]1C is reported with PAMPA 1.5 × 10^-6 cm/s.
COc1ccc(C[C@@H]2NC(=O)[C@@H](CC(C)C)NC(=O)[C@@H](NC(=O)[C@@H](CC(C)C)N(C)C(=O)[C@@H]3CCCN3C(C)=O)[C@@H](C)OC(=O)[C@@H]3CCCN3C(=O)[C@H](CC(C)C)NC(=O)[C@@H](C)N(C)C(=O)[C@@H](Cc3ccc(F)c(F)c3)NC2=O)cc1 is reported with PAMPA 1.7 × 10^-6 cm/s.
CC[C@H]1NC(=O)[C@@H](NC(=O)[C@@H](CC(C)C)N(C)C(=O)[C@@H]2CCCN2C(C)=O)[C@@H](C)OC(=O)[C@@H]2CCCN2C(=O)[C@H](CC(C)C)NC(=O)[C@@H](C)N(C)C(=O)[C@@H](CC)NC(=O)[C@H](Cc2ccc(F)cc2)NC1=O is reported with PAMPA 0.28 × 10^-6 cm/s.
CC(=O)N1CCC[C@H]1C(=O)N[C@@H]1C(=O)N[C@H](CC(C)C)C(=O)N(C)[C@H](CC(C)C)C(=O)N(C)[C@H](CC(C)C)C(=O)N[C@H](CC(C)C)C(=O)N[C@H](C)C(=O)N[C@@H](CC(C)C)C(=O)N2CCC[C@@H]2C(=O)O[C@@H]1C is reported with PAMPA 1.1 × 10^-6 cm/s.
CC(=O)N1CCC[C@H]1C(=O)N(C)[C@H](CC(C)C)C(=O)N[C@@H]1C(=O)N[C@H](Cc2ccc(F)cc2)C(=O)N[C@@H](CC(C)C)C(=O)N[C@H](Cc2ccccc2)C(=O)N(C)[C@H](C)C(=O)N[C@@H](CC(C)C)C(=O)N2CCC[C@H]2C(=O)O[C@@H]1C is reported with PAMPA 2.6 × 10^-6 cm/s.
COc1ccc(C[C@@H]2NC(=O)[C@@H](Cc3ccccc3)NC(=O)[C@@H](NC(=O)[C@@H](CC(C)C)N(C)C(=O)[C@@H]3CCCN3C(C)=O)[C@@H](C)OC(=O)[C@@H]3CCCN3C(=O)[C@H](CC(C)C)NC(=O)[C@@H](C)N(C)C(=O)[C@@H](Cc3ccc(F)c(F)c3)NC2=O)cc1 is reported with PAMPA 1.2 × 10^-6 cm/s.
CC[C@H]1NC(=O)[C@H](Cc2ccc(OC)cc2)NC(=O)[C@@H](Cc2ccc(F)c(F)c2)NC(=O)[C@@H](NC(=O)[C@@H](CC(C)C)N(C)C(=O)[C@@H]2CCCN2C(C)=O)[C@@H](C)OC(=O)[C@@H]2CCCN2C(=O)[C@H](CC(C)C)NC(=O)[C@@H](C)N(C)C1=O is reported with PAMPA 1.1 × 10^-6 cm/s.
CC(=O)N[C@@H]1C(=O)N2CCC[C@H]2C(=O)N(C)[C@H](CC(C)C)C(=O)N[C@@H](CC(C)C)C(=O)N(C)[C@@H](CC(C)C)C(=O)N(C)[C@@H](CC(C)C)C(=O)N(C)[C@H](C)C(=O)N[C@@H](CC(C)C)C(=O)N2CCC[C@@H]2C(=O)O[C@@H]1C is reported with PAMPA 3.4 × 10^-6 cm/s.
CC(=O)N[C@@H]1C(=O)N2CCC[C@H]2C(=O)N(C)[C@H](CC(C)C)C(=O)N[C@H](CC(C)C)C(=O)N(C)[C@@H](CC(C)C)C(=O)N[C@@H](CC(C)C)C(=O)N[C@@H](C)C(=O)N[C@@H](CC(C)C)C(=O)N2CCC[C@@H]2C(=O)O[C@@H]1C is reported with PAMPA 0.13 × 10^-6 cm/s.
CC(=O)N1CCC[C@H]1C(=O)N[C@@H]1C(=O)N(C)[C@H](CC(C)C)C(=O)N(C)[C@H](CC(C)C)C(=O)N(C)[C@H](CC(C)C)C(=O)N[C@H](CC(C)C)C(=O)N[C@H](C)C(=O)N[C@@H](CC(C)C)C(=O)N2CCC[C@@H]2C(=O)O[C@@H]1C is reported with PAMPA 2.3 × 10^-6 cm/s.
CC(=O)N[C@@H]1C(=O)N2CCC[C@H]2C(=O)N(C)[C@H](CC(C)C)C(=O)N(C)[C@@H](CC(C)C)C(=O)N(C)[C@@H](CC(C)C)C(=O)N(C)[C@@H](CC(C)C)C(=O)N[C@H](C)C(=O)N[C@@H](CC(C)C)C(=O)N2CCC[C@@H]2C(=O)O[C@@H]1C is reported with PAMPA 7.8 × 10^-6 cm/s.
CC[C@H]1NC(=O)[C@H](CC(C)C)NC(=O)[C@@H](CC2CCCCC2)NC(=O)[C@@H](NC(=O)[C@@H](CC(C)C)N(C)C(=O)[C@@H]2CCCN2C(C)=O)[C@@H](C)OC(=O)[C@@H]2CCCN2C(=O)[C@H](CC(C)C)NC(=O)[C@@H](C)N(C)C1=O is reported with PAMPA 5.1 × 10^-6 cm/s.
CC[C@@H]1NC(=O)[C@@H](Cc2ccccc2)NC(=O)[C@@H](NC(=O)[C@@H](CC(C)C)N(C)C(=O)[C@@H]2CCCN2C(C)=O)[C@@H](C)OC(=O)[C@@H]2CCCN2C(=O)[C@H](CC(C)C)NC(=O)[C@@H](C)N(C)C(=O)[C@@H](CC)NC1=O is reported with PAMPA 0.14 × 10^-6 cm/s.
CC[C@H]1NC(=O)[C@H](Cc2ccc(OC)cc2)NC(=O)[C@@H](Cc2ccc(F)cc2)NC(=O)[C@@H](NC(=O)[C@@H](CC(C)C)N(C)C(=O)[C@@H]2CCCN2C(C)=O)[C@@H](C)OC(=O)[C@@H]2CCCN2C(=O)[C@H](CC(C)C)NC(=O)[C@@H](C)N(C)C1=O is reported with PAMPA 0.14 × 10^-6 cm/s.
CC(=O)N[C@@H]1C(=O)N2CCC[C@H]2C(=O)N(C)[C@H](CC(C)C)C(=O)N(C)[C@@H](CC(C)C)C(=O)N[C@H](CC(C)C)C(=O)N[C@@H](CC(C)C)C(=O)N[C@@H](C)C(=O)N[C@@H](CC(C)C)C(=O)N2CCC[C@@H]2C(=O)O[C@@H]1C is reported with PAMPA 0.45 × 10^-6 cm/s.

Excerpt, the final 2 entries:

CC[C@H]1NC(=O)[C@H](Cc2ccc(OC)cc2)NC(=O)[C@@H](Cc2ccc(F)cc2)NC(=O)[C@@H](NC(=O)[C@@H](CC(C)C)N(C)C(=O)[C@@H]2CCCN2C(C)=O)[C@@H](C)OC(=O)[C@@H]2CCCN2C(=O)[C@H](CC(C)C)NC(=O)[C@@H](C)N(C)C1=O is reported with PAMPA 0.14 × 10^-6 cm/s.
CC(=O)N[C@@H]1C(=O)N2CCC[C@H]2C(=O)N(C)[C@H](CC(C)C)C(=O)N(C)[C@@H](CC(C)C)C(=O)N[C@H](CC(C)C)C(=O)N[C@@H](CC(C)C)C(=O)N[C@@H](C)C(=O)N[C@@H](CC(C)C)C(=O)N2CCC[C@@H]2C(=O)O[C@@H]1C is reported with PAMPA 0.45 × 10^-6 cm/s.